Assay outcomes from PubChem.
Nrf2 ARE act: activates Nrf2 signaling; AREc32 ARE-luciferase reporter (MCF7-derived line), luminescence, 24 h; actives 0.31% (n = 410,000); Potency, µM (doses to about 46.1 µM), for inactives: top-dose activation, usual class: activators; further: potency means the concentration at half of the fitted maximal effect; % of control where 0% means no effect; nearly all actives have a fitted effect of over 65% in size
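For detection, Steady-Glo was added and plates sat 30 min at RT; before that, AREc32_Fluc cells grown overnight in OPTI-MEM/5% FBS had been treated with 23 nL compound for 24 hr at 37 deg C.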
PI4K2A block: PI4K2A (human) kinase inhibition; Q9BTU6; purified PI4K2A, ADP-Glo luminescence, 1 h; hits give low values; activity change, negative = inhibition, % at 76.9 µM; actives 0.13% (n = 420,000); in the data active means activity change below about -50%; inconclusive means mostly about -30% to -49%;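 further: -100% = wells without enzyme as full effect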
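In this quantitative HTS, ADP production by PI4K2A was quantified luminescently after 1 h at ambient temperature; 100 microM adenosine served as plate-quality control.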
A549 tox-1: kills or reduces viability of A549 cells in Nrf2 counter-screen. AID 504648. A549 ARE-Fluc cells, CellTiter-Fluor viability, 18-24 h. actives 0.16% (n = 390,000). Potency, µM (top dose mostly 46 µM), for the others: at the highest dose activity change, negative = cytotoxicity, actives largely listed as inhibitors; further: potency means the concentration at half of the fitted maximal effect; on the % scale 0 is the no-effect control and ±100 the full control effect
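Cytotoxicity counterscreen: CellTiter-Fluor fluorescence was measured in A549 ARE_Fluc cells after 18-24 h of compound exposure in a concentration series. The subsequent BugLite luminescent read reports ARE-luciferase activity.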
Nrf2 block: Nrf2 pathway inhibition. AID 504444. A549 ARE-Fluc reporter, luciferase luminescence, 18-24 h. actives 2.1% (n = 360,000). Potency, µM (top dose mostly 46 µM), for the others: top-dose activity change, negative = inhibition, hits mostly inhibitors; further: potency means the concentration at half of the fitted maximal effect; on the % scale 0 is the no-effect control and ±100 the full control effect; nearly all actives have a fitted effect of over 60% in size
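Two sequential reads on A549 ARE_Fluc cells exposed to compound for 18-24 h: a CellTiter-Fluor fluorescence read for viability, then a luciferase luminescence read for Nrf2/ARE activity.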
GALK inh: inhibitors of human galactokinase. Purified GALK, Kinase-Glo residual ATP luminescence. Potency, µM (highest dose often 57.5 µM), for the others: top-dose activity change, negative = inhibition, usual class: inhibitors. AID 1868. actives 0.007% (n = 270,000). P51570; further: potency means the concentration at half of the fitted maximal effect; on the % scale 0 is the no-effect control and ±100 the full control effect
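Compounds were pin-transferred into ATP buffer (35 uM final), then GALK plus galactose (5 nM, 100 uM final) was added. After 1 h at room temperature, Kinase-Glo Plus was added and luminescence read after 10 min.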
miR-21 reporter: miR-21 reporter, rising signal. HeLa miR-21 FLuc reporter, luciferase, 48 h. Potency, µM (highest dose often 38.3 µM), for the others: at the highest dose reporter change, positive = more light. 340,000 tested, under 10 active. AID 2288; active = well fitted rising curve with a large enough effect; inconclusive = small, poorly fitted or top-dose-only effect; inactive = no such curve, though single readings can be large or run the other way;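 further: % of control where 0% means no effect; miR-21 action dims this reporter so a rising signal means less miR-21 action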
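Luminescence from a firefly luciferase reporter carrying a miR-21 binding site downstream, stably expressed under a CMV promoter in HeLa cells that make miR-21 endogenously, reports miRNA modulation after 48 h compound exposure up to approximately 40uM final.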
FLuc enzyme inh: counter-screen for Nrf2 inhibitors: firefly luciferase enzyme inhibition; shares compounds with Nrf2 block; Potency, µM (doses to about 57.5 µM), without a hit: top-dose activity change, negative = inhibition, usual class: inhibitors; purified firefly luciferase, luminescence inhibition; actives 4% (n = 1,400); further: potency means the concentration at half of the fitted maximal effect; on the % scale 0 is the no-effect control and ±100 the full control effect; nearly all actives have a fitted effect of over 65% in size
A549 tox-2: A549 cytotoxicity, Nrf2 inhibitor counterscreen. AID 720523. A549 ARE-Fluc cells, cytotoxicity counterscreen. shares compounds with Nrf2 block. Potency, µM (titrated, usually from 46.1 µM), for inactives: at the top dose activity change, negative = cytotoxicity, actives largely listed as inhibitors. actives 2% (n = 1,400);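 further: potency means the concentration at half of the fitted maximal effect; cells exposed to compounds for 18 to 24 hours; on the % scale 0 is the no-effect control and ±100 the full control effect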
Nrf2 ARE inh: Nrf2 inhibition confirmed, A549 ARE-luciferase. shares compounds with Nrf2 block. A549 ARE-firefly luciferase reporter, luminescence. Potency, µM (doses to about 46.1 µM), for the others: top-dose activity change, negative = inhibition, usual class: inhibitors. actives 74% (n = 1,400); further: potency means the concentration at half of the fitted maximal effect; on the % scale 0 is the no-effect control and ±100 the full control effect; nearly all actives have a fitted effect of over 65% in size
Starred values were filed as active, the others as inactive; ? = inconclusive; . = no result shown. In the library only some 2.2% were active in any assay of this set; here they are far more common. Unless noted, the call rests on the fitted dose curve; in most records, active means well fitted curve in the direction sought with a large enough effect; inconclusive means small, poorly fitted or top-dose-only effect, or another doubt; inactive means no such curve, though single readings can be large; an effect the other way counts as inactive or inconclusive.

smiles | Nrf2 ARE act | PI4K2A block | A549 tox-1 | Nrf2 block | GALK inh | miR-21 reporter | FLuc enzyme inh | A549 tox-2 | Nrf2 ARE inh
O=C(Nc1nc(-c2ccc3ccccc3c2)cs1)C1CCN(S(=O)(=O)c2cccs2)CC1 | 0.3% | -2.6 | -9.9% | 5.17µM* | 1.5% | -2.4% | 1.0% | -1.0% | ?
COc1ccc(S(=O)(=O)N2CCC(C(=O)Nc3ccc(Oc4ccccc4)cc3)CC2)cc1 | 0.1% | 0.3 | -0.4% | ? | . | 1.0% | -1.5% | -14.1% | ?
CCc1ccc(NC(=O)C2CCN(S(=O)(=O)c3cccs3)CC2)cc1 | 4.7% | 16.0 | -25.5% | 3.66µM* | -1.5% | 12.4% | -3.7% | -7.9% | 9.2µM*
CC(=O)N1CCCN(C(=O)CCn2nnc3ccccc32)CC1 | . | 1.6 | . | . | . | . | . | . | .
Oc1ccc(Br)cc1C1C=C(c2ccc3c(c2)OCO3)NC(c2ccc(F)c(Br)c2)N1 (stereo unspecified) | . | . | -17.1% | ? | . | . | . | . | .
CC12CC(c3ccccc3O1)N(C(=O)c1ccco1)C(=S)N2c1ccccc1 (stereo unspecified) | 0.4% | 7.2 | ? | 8.2µM* | 1.2% | 11.1% | 2.5% | -13.7% | -15.5%
C[C@H]1[C@@H](C(=O)N2CCCC2)CC(=O)/C(=N/OCc2ccccc2)C[C@@H]1c1ccccc1 | . | -3.2 | . | . | . | . | . | . | .
C[C@H]1COc2cccc(N3CCCC3)c2S(=O)(=O)N1C | . | -0.7 | . | . | . | . | . | . | .
COC(=O)[C@]1(C)CN(C(=O)OC(C)(C)C)C2=C1C(=O)C[C@@](C)(C(=O)OC(C)(C)C)C2 | . | -1.8 | . | . | . | . | . | . | .
COc1ccc(-c2noc(CSc3nnc(-c4ccncc4)n3-c3ccc(OC)cc3)n2)cc1 | 5.0% | 1.3 | -0.4% | ? | . | 6.0% | . | . | .
Clc1ccc(-c2noc(CSc3nnc(-c4ccncc4)n3-c3ccccc3)n2)cc1 | 3.3% | -8.5 | ? | 2.31µM* | -7.6% | 23.0% | -9.3% | -9.0% | 13µM*
O=C(CSc1nnc(-c2cnccn2)n1-c1ccccc1)Nc1ccc2c(c1)OCCO2 | . | 0.1 | . | . | . | . | . | . | .
CC(C)(C)c1ccc(-n2ncc3c2CCCC3NC(=O)C2(C(N)=O)CC2)cc1 (stereo unspecified) | -0.4% | -1.0 | -6.8% | 1.3µM* | 0.6% | 11.9% | -17.2% | -6.8% | .
Cc1cccc(NC(=O)CSc2ccc(-c3ccccn3)nn2)c1 | 0.3% | -2.3 | -5.3% | ? | . | -5.6% | . | . | .
COc1ccc(C)cc1NC(=O)CSc1ccc(-c2sc(C)nc2C)nn1 | -0.4% | 0.5 | -20.4% | 9.2µM* | -6.2% | -10.3% | ? | -18.9% | ?
COc1ccc(C)cc1NC(=O)CSc1ccc(-c2ccccn2)nn1 | 6.5% | 5.8 | 1.6% | 3.66µM* | -4.1% | 5.2% | ? | -11.8% | 18.4µM*
C#CCNC(=O)C[C@H]1C[C@@]2(C(=O)OC)C(=C[C@H](COCc3ccccc3)O[C@@H]2C)N(Cc2ccccc2)C1=O | . | 5.5 | . | . | . | . | . | . | .
O=C(NC1CCC1)c1ccc(C#Cc2cccc(F)c2)cn1 | . | -8.5 | . | . | . | . | . | . | .
Cc1ccc(Cn2nc(C)c(NC(=O)CSc3nc4c(c(C(F)(F)F)n3)CCc3ccccc3-4)c2C)cc1 | 0.2% | -4.7 | -4.0% | 8.7% | 0.1% | -1.2% | . | . | .
Cc1nn(Cc2ccc(Cl)cc2)c(C)c1NC(=O)CSc1nc2c(c(C(F)(F)F)n1)CCc1ccccc1-2 | -0.2% | 5.7 | ? | 9.2µM* | 0.2% | 0.8% | -7.6% | ? | ?
COc1cccc(C(=O)N(Cc2ccccc2)Cc2cc3cc4c(cc3[nH]c2=O)OCCO4)c1 | -0.2% | 5.3 | -18.0% | 2.59µM* | 1.8% | -3.9% | -4.0% | -23.1% | ?
COc1cccc(-c2ncc3ccccc3c2COC(=O)N2CCOCC2)c1 | 0.8% | -2.5 | -9.9% | -7.7% | . | . | . | . | .
COc1cccc(-c2ncc3ccccc3c2COC(=O)N2CCCCC2)c1 | 3.2% | 1.0 | -2.1% | 5.8µM* | . | . | -21.9% | -0.7% | ?
Cc1ccc(S(=O)(=O)NCc2ccncc2)cc1C | -0.7% | -2.3 | -6.5% | 2.31µM* | -0.8% | 12.5% | -1.8% | -1.3% | 2.06µM*

Already shown: entries from further up.
smiles | Nrf2 ARE act | PI4K2A block | A549 tox-1 | Nrf2 block | GALK inh | miR-21 reporter | FLuc enzyme inh | A549 tox-2 | Nrf2 ARE inh
C#CCNC(=O)C[C@H]1C[C@@]2(C(=O)OC)C(=C[C@H](COCc3ccccc3)O[C@@H]2C)N(Cc2ccccc2)C1=O | . | 5.5 | . | . | . | . | . | . | .
O=C(NC1CCC1)c1ccc(C#Cc2cccc(F)c2)cn1 | . | -8.5 | . | . | . | . | . | . | .
Cc1ccc(Cn2nc(C)c(NC(=O)CSc3nc4c(c(C(F)(F)F)n3)CCc3ccccc3-4)c2C)cc1 | 0.2% | -4.7 | -4.0% | 8.7% | 0.1% | -1.2% | . | . | .

Following part
smiles | Nrf2 ARE act | PI4K2A block | A549 tox-1 | Nrf2 block | GALK inh | miR-21 reporter | FLuc enzyme inh | A549 tox-2 | Nrf2 ARE inh
COc1cc(S(=O)(=O)NCc2ccncc2)ccc1Br | -0.7% | -0.1 | -15.5% | 3.26µM* | 4.7% | 13.9% | -2.1% | -1.8% | 3.66µM*
COc1ccc(S(=O)(=O)NCc2cccnc2)cc1Br | 0.1% | 0.6 | -6.6% | 7.31µM* | 4.8% | 14.2% | 2.6% | -2.5% | ?
CNC(=O)c1cc(S(=O)(=O)NCc2ccncc2)ccc1OC | -0.1% | -5.3 | 4.7% | ? | -2.6% | 0.2% | . | . | .
O=S(=O)(NCc1ccncc1)c1ccc(Br)s1 | -0.2% | 7.8 | -23.8% | 1.46µM* | -4.0% | 11.8% | -0.6% | -4.4% | 1.46µM*
O=C(Cc1ccccc1)NC1CCCCN(Cc2ccc(Cl)cc2)C1=O (stereo unspecified) | . | -3.0 | . | . | . | . | . | . | .
COC(=O)[C@@H]1C[C@@]2(c3ccccc3)c3ccccc3N(S(=O)(=O)c3ccccc3)[C@H]2N1C(=O)CNC/C=C(\C)CCC=C(C)C | . | -4.3 | . | . | . | . | . | . | .
O=C(CSc1nnc(-c2cccnc2)n1-c1ccccc1)Nc1ccc(OCc2ccccc2)cc1 | . | -8.6 | . | . | . | . | . | . | .
COc1ccc(S[C@]2(C(=O)N3CCN(C(C)=O)CC3)CC(=O)N(C(=O)Nc3ccc(C)c(Cl)c3)[C@@H]2c2ccc(OC)cc2)cc1 | . | 3.7 | . | . | . | . | . | . | .
CCOc1ccc(S(=O)(=O)Nc2nc3ccccc3nc2Cl)cc1 | 2.3% | -5.2 | 0.0% | ? | -1.5% | 14.1% | . | . | .
O=C(Nc1ccc(Br)cc1)c1cccc(S(=O)(=O)Nc2cnc3ccccc3c2)c1 | 9.9% | -8.0 | ? | 2.91µM* | . | 15.0% | ? | -14.0% | 18.4µM*
CCOc1ccc(S(=O)(=O)Nc2cnc3ccccc3c2)cc1 | -0.4% | -1.0 | -11.0% | 4.11µM* | 0.1% | 15.7% | 0.2% | 0.1% | 6.51µM*
Cc1sc(NC(=O)Cc2ccc3c(c2)OCO3)nc1-c1ccc2c(c1)CCN2C(=O)c1ccc(F)cc1 | -1.2% | 0.2 | 0.5% | 5.17µM* | -0.8% | -8.9% | -7.6% | 7.8% | 2.59µM*
